Test system: HLA-B44 supertype molecules
Test: HLA-B44 supertype cross-binding
Design: species or system human
Settings: number of the six B44 supertype alleles bound

Degeneracy, 1:
CC[C@H](C)[C@H](N)C(=O)N[C@@H](CCC(=O)O)C(=O)N[C@@H](CC(C)C)C(=O)N[C@@H](CCSC)C(=O)N[C@@H](CCC(=O)O)C(=O)N[C@H](C(=O)N[C@@H](CC(=O)O)C(=O)N1CCC[C@H]1C(=O)N[C@H](C(=O)NCC(=O)O)[C@@H](C)CC)C(C)C, C[C@@H](O)[C@H](NC(=O)[C@H](CO)NC(=O)[C@@H]1CCCN1C(=O)CNC(=O)[C@H](CCC(=O)O)NC(=O)[C@H](CCC(=O)O)NC(=O)[C@H](CCC(=O)O)NC(=O)[C@@H](N)CCC(N)=O)C(=O)N[C@@H](Cc1ccccc1)C(=O)O

Degeneracy, 6:
CC(C)C[C@H](NC(=O)[C@@H](NC(=O)[C@H](CO)NC(=O)[C@H](CO)NC(=O)[C@H](CO)NC(=O)[C@H](CO)NC(=O)[C@H](C)NC(=O)[C@H](C)NC(=O)[C@H](CCC(=O)O)NC(=O)[C@@H](N)CCC(N)=O)[C@@H](C)O)C(=O)O, CC(C)C[C@H](NC(=O)[C@H](C)NC(=O)[C@H](C)NC(=O)[C@H](CCC(N)=O)NC(=O)[C@H](Cc1ccccc1)NC(=O)[C@H](CCC(=O)O)NC(=O)[C@H](CO)NC(=O)[C@H](CCC(=O)O)NC(=O)[C@@H](N)CC(C)C)C(=O)O [LESEFQAAL], CSCC[C@H](N)C(=O)N[C@@H](CCC(=O)O)C(=O)N[C@@H](CC(C)C)C(=O)N[C@@H](C)C(=O)N[C@@H](C)C(=O)N[C@@H](CC(C)C)C(=O)N[C@@H](CS)C(=O)N[C@@H](CCCNC(=N)N)C(=O)N[C@@H](Cc1c[nH]c2ccccc12)C(=O)NCC(=O)N[C@@H](CC(C)C)C(=O)O [compound 430], CC(C)C[C@H](NC(=O)[C@H](CO)NC(=O)[C@H](C)NC(=O)[C@H](CC(N)=O)NC(=O)[C@@H](NC(=O)[C@@H]1CCCN1C(=O)[C@H](CC(C)C)NC(=O)[C@H](Cc1ccc(O)cc1)NC(=O)[C@@H](NC(=O)[C@H](CC(C)C)NC(=O)[C@H](CCC(=O)O)NC(=O)[C@@H](N)CC(C)C)[C@@H](C)O)[C@@H](C)O)C(=O)O [compound 431]

Degeneracy, 2:
CC[C@H](C)[C@H](NC(=O)[C@H](CO)NC(=O)[C@H](CC(=O)O)NC(=O)[C@H](CCC(=O)O)NC(=O)[C@H](CCCNC(=N)N)NC(=O)CNC(=O)[C@H](CCC(=O)O)NC(=O)[C@@H](N)Cc1ccccc1)C(=O)O, CC[C@H](C)[C@H](NC(=O)[C@H](CO)NC(=O)[C@H](CC(=O)O)NC(=O)[C@H](CCC(=O)O)NC(=O)[C@H](CCCNC(=N)N)NC(=O)CNC(=O)[C@H](CCC(=O)O)NC(=O)[C@H](Cc1ccccc1)NC(=O)[C@@H](NC(=O)[C@H](CCC(=O)O)NC(=O)[C@@H](N)CC(C)C)C(C)C)C(=O)O, C[C@H](NC(=O)[C@H](C)NC(=O)[C@H](CCC(=O)O)NC(=O)[C@@H](N)CCC(N)=O)C(=O)N[C@@H](CO)C(=O)N[C@@H](CO)C(=O)N[C@@H](CO)C(=O)N[C@@H](CO)C(=O)N[C@H](C(=O)O)[C@@H](C)O, CC[C@H](C)[C@H](NC(=O)[C@H](CCCCN)NC(=O)[C@H](CCC(=O)O)NC(=O)[C@H](CCC(=O)O)NC(=O)[C@@H]1CCCN1C(=O)[C@H](C)NC(=O)[C@H](CS)NC(=O)[C@H](CC(=O)O)NC(=O)CNC(=O)[C@H](CCC(=O)O)NC(=O)[C@@H](N)CCCNC(=N)N)C(=O)O

Degeneracy, 3:
CC[C@H](C)[C@H](NC(=O)[C@H](CO)NC(=O)[C@H](CC(=O)O)NC(=O)[C@H](CCC(=O)O)NC(=O)[C@H](CCCNC(=N)N)NC(=O)CNC(=O)[C@H](CCC(=O)O)NC(=O)[C@@H](N)Cc1ccccc1)C(=O)N[C@@H](CC(C)C)C(=O)O, CC[C@H](C)[C@H](NC(=O)[C@H](CO)NC(=O)[C@H](CC(=O)O)NC(=O)[C@H](CCC(=O)O)NC(=O)[C@H](CCCNC(=N)N)NC(=O)CNC(=O)[C@H](CCC(=O)O)NC(=O)[C@@H](N)Cc1ccccc1)C(=O)N[C@@H](CC(C)C)C(=O)NCC(=O)O, CC(C)C[C@H](NC(=O)[C@H](CCC(=O)O)NC(=O)[C@H](CCC(=O)O)NC(=O)[C@@H](N)Cc1c[nH]c2ccccc12)C(=O)N[C@@H](CO)C(=O)N[C@H](C(=O)N[C@@H](CC(C)C)C(=O)N[C@@H](CCC(=O)O)C(=O)N[C@H](C(=O)O)C(C)C)C(C)C

Reference: patent publication US20060094649A1, “Hla-a1,-a2,-a3,-a24,-b7, and-b44 tumor associated antigen peptides and compositions” (priority 2002, published 2006)
